{
  "source": "patent US20220362153A1",
  "about": "“COMPOSITIONS AND METHODS FOR PULMONARY SURFACTANT-BIOMIMETIC NANOPARTICLES” (priority 2019, published 2022)",
  "tested_on": "pulmonary cells (AMs, AECs, DCs)",
  "details": "mouse, in vivo",
  "data": [
    {"substance": "poly IC", "values": [
      {"measurement": "total AECs that took up poly IC in the lung", "result": 0.4, "unit": "%"},
      {"measurement": "total DCs that took up poly IC in the lung", "result": 4, "unit": "%"},
      {"measurement": "uptake by MLN and nasal tissue DCs and nasal epithelial cells", "result": "rarely internalized poly IC"},
      {"measurement": "poly IC remaining within AMs", "setting": "12 h", "result": "> 97", "unit": "%"}
    ]}
  ]
}
